Test results reported in PubChem BioAssay AID504692 (The Scripps Research Institute Molecular Screening Center, 2011).
The entries are a selection whose mix differs from that of the whole data set. The source made the active and inactive calls. Rule as the data show it: active = activation mostly above about 9.5% (no sharp cut-off); inactive = mostly below about 7.6%.

Protein sequences, listed by entry. Tags and fused reporters are not part of them.
UniProt P47898, whole entry, looked up: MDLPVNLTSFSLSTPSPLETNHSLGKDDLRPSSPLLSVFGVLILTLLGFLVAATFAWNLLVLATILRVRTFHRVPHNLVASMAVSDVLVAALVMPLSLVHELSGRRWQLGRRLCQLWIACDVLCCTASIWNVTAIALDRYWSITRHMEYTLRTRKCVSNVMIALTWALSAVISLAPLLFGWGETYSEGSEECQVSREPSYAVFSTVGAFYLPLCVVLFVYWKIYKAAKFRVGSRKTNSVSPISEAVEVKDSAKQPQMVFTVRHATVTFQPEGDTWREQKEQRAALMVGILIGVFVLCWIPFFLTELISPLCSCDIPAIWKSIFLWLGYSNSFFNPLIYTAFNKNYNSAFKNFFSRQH

target: 5-hydroxytryptamine receptor 5A (Homo sapiens) (UniProt P47898); experiment: HTR5A agonists in luminescence cell assay, primary screen, counter-screen for OPRM1-OPRD1 heterodimer agonist project, full-deck HTS (AID 504692); settings: cell-based, at 9.3 µM, stronger effect = higher value;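 also: 0% = cells with vehicle only and 100% = reference agonist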

| Compound | activation |
| --- | --- |
| CCN1C(=O)CC(n2c(C)nc3ccccc32)C1=O (stereo not given) | inactive: 4.1% |
| CCc1cccc(C)c1NC(=O)CSc1nc2ccccc2n1CC(=O)N(C)C | inactive: -3.49% |
| Cn1c(=O)[nH]c(=O)c2c1nc(N1CCCCCC1)n2CC(N)=O | inactive: -2.63% |
| COc1ccc(-c2nn(-c3ccccc3)cc2C(=O)N2c3ccc(C)cc3C3CN(C)CCC32)cc1 (stereo not given) | inactive: 0.47% |
| Nc1nonc1-c1nc2ccccc2n1CC(=O)N/N=C/c1ccc(-c2ccccc2C(=O)O)o1 | inactive: -2.02% |
| Cc1cccc(OCC(O)Cn2c(=N)n(CCN3CCCCC3)c3ccccc32)c1 (stereo not given) | inactive: 1.62% |
| COc1ccc(CNc2nc3ccccc3n2CCN2CCCCC2)cc1 | inactive: 1.82% |
| COCCN1CCn2c(nc3cc(NS(C)(=O)=O)ccc32)C1 | inactive: 5.9% |
| O=C(Cn1cnc2ccccc21)N/N=C/c1ccco1 | inactive: 0.41% |
| Cc1ccc2c(c1)C1CN(C)CCC1N2S(=O)(=O)c1ccc(C(C)C)cc1 (stereo not given) | inactive: -4.84% |
| CCSc1nc2ccccc2n1CC(N)=O | inactive: 7.51% |
| COc1ccc(OC)c(CNc2nc3ccccc3n2CCN2CCCCC2)c1 | inactive: -1.25% |
| O=C(Cn1cnc2ccccc21)Nc1ccccc1-c1ccccc1 | inactive: 8.3% |
| CCC(C)N(C(=O)Cn1c(Cl)nc2c1c(=O)n(C)c(=O)n2C)C1CCS(=O)(=O)C1 (stereo not given) | inactive: 0.64% |
| Brc1cccc(CNc2nc3ccccc3n2CCN2CCCCC2)c1 | inactive: -6.77% |
| COC(=O)[C@H](Cc1ccccc1)NC(=O)Cn1cnc2c(NCc3ccccc3)ncnc21 | inactive: 0.45% |
| Cn1c(=O)c2c(nc(CN3CCN(Cc4ccccc4)CC3)n2CCN2CCOCC2)n(C)c1=O | inactive: -2.26% |
| CC(NC(=O)Cn1c(NCCO)nc2ccccc21)c1ccccc1 (stereo not given) | inactive: -0.14% |
| CCN(CC)CCn1c(=N)n(CC(O)c2ccc(OC)c(OC)c2)c2ccccc21 (stereo not given) | inactive: 3.96% |
| CC(C)C[C@H](NC(=O)N1CCn2c1nc1ccccc12)C(=O)NC1CC1 | inactive: 4.41% |
| COc1ccc(NC(=O)CN(C)C(=O)Cn2cnc3c2c(=O)n(C)c(=O)n3C)cc1 | inactive: -7.15% |
| O=C(c1cccs1)N1CCn2c1nc1ccccc12 | inactive: 2.22% |
| c1ccc2c(c1)nc1n2CCN1CCN1CCCC1 | inactive: 2.36% |

| Compound | activation |
| --- | --- |
| Cn1c(=O)c2c(ncn2CC(=O)N2CCN(S(=O)(=O)c3ccccc3)CC2)n(C)c1=O | inactive: 1.71% |
| CC1CCCC(C)N1C(=O)Cn1c(SCC(=O)Nc2ccc3c(c2)OCO3)nc2ccccc21 (stereo not given) | inactive: -1.28% |
| Cc1ccccc1Oc1ccc2c(c1)[C@@H]1C[C@H](N(C)C(=O)NC3CCCCC3)[C@H]([C@H](C)O)C(=O)N1CC2 | inactive: 0.07% |
| CCOCCn1c(=O)c2c(nc3n2CCN3c2ccc(C)cc2)n(C)c1=O | inactive: 3.89% |
| N#CCCN1CCn2c1nc1ccccc12 | inactive: 0.45% |
| C[C@@H](NC(=O)Cn1cnc2c(OCc3ccccc3)ncnc21)c1cccc2ccccc12 | inactive: -1.95% |
| COc1ccc(OCC(O)Cn2c(=N)n(CCN3CCCCC3)c3ccccc32)cc1 (stereo not given) | inactive: 2.66% |
| Cn1c(=O)c2ncn(CC(=O)N/N=C/c3ccco3)c2n(C)c1=O | inactive: -1.13% |
| O=C(Cn1cnc2c(OCc3ccccc3)ncnc21)NCC1CCCO1 (stereo not given) | inactive: 0.98% |
| O=P(Nc1nccs1)(c1ccccc1)c1ccccc1 | inactive: 0.33% |
| Cn1c(=O)n(CC(=O)N2CCOCC2)c2ccccc21 | inactive: -2.25% |
| c1ccc(CNc2nc3ccccc3n2CCN2CCOCC2)nc1 | inactive: -0.47% |
| CC(C)C(=O)NC(Sc1ccccc1)C(Cl)(Cl)Cl (stereo not given) | inactive: 0.11% |
| CC(/C=N/NC(=O)Cn1cnc2c1c(=O)n(C)c(=O)n2C)=C\c1ccccc1 | inactive: 3.62% |
| CCC(C(=O)NC1CCCCC1)n1c(SCc2cccc(F)c2)nc2ccncc21 (stereo not given) | inactive: 0.96% |
| CC(C)C[C@H](NC(=O)N1CCn2c1nc1ccccc12)C(=O)N[C@H](Cc1ccccc1)C(=O)O | inactive: -3.11% |
| CC(C)c1ccccc1NC(=O)Cn1c(-c2ccccc2Cl)nc2ccccc21 | inactive: -1.41% |
| CCc1ccc(NC(=O)Cn2cnc3c(=O)n(C)c(=O)n(C)c32)cc1 | inactive: -1.01% |
| CCS(=O)(=O)c1nc2ccccc2n1CC(=O)N1CCCCC1 | inactive: 6.35% |
| CCOC(=O)Cn1c(=O)oc2cc(S(=O)(=O)N3CCn4c3nc3ccccc34)ccc21 | inactive: 5.29% |
| CC(C)[C@H](NC(=O)N1CCn2c1nc1ccccc12)C(=O)N[C@@H](Cc1ccccc1)C(=O)O | inactive: 5.92% |
| Cc1ccc(-c2csc(N3CCC[C@@H]3C(=O)NCCn3c(-c4ccncc4)nc4ccccc43)n2)cc1 | inactive: 17.7% |
